Screening results as filed in PubChem BioAssay.
p53 reactivator = re-activators of mutant p53 | H1299 p53-A138V BP100-luciferase reporter, luminescence, 24 h | Potency, µM (doses to about 92.2 µM), for inactives: at the top dose activity change, positive = activation, hits mostly activators | hit rate 0.063% among 320,000 | AID 504706; further: potency means the concentration at half of the fitted maximal effect; % of control where 0% means no effect; nearly all actives have a fitted effect of over 45% in size
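H1299 (p53-null), stable ts p53-A138V + BP100-Luc; 1000 cells/well, Opti-MEM/10% FBS; cpd 4 pt, 1:5; 24 h, 37 deg C, 5% CO2; detection reagent 10 min RT; luminescence.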
ClpP mod = qHTS Assay for Activators of ClpP; hit rate 1.9% among 340,000; ATP-dependent Clp protease proteolytic subunit (Bacillus subtilis (strain 168)), P80244; Potency, µM (series often up to 57.5 µM), without a hit: at the top dose activity change, negative = active; purified B. subtilis ClpP, FRET peptide cleavage, 20 min; active means well fitted falling curve with a large enough effect; inconclusive means small, poorly fitted or top-dose-only effect; inactive means no such curve, though single readings can be large or run the other way; further: potency means the concentration at half of the fitted maximal effect; the source files actives as falling curves though it sought activators and does not explain the sign; nearly all actives have a fitted effect of over 65% in size
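Buffer: 100 mM Tris/HCl pH8, 100 mM KCl, 0.05% low protease BSA, 2.5% glycerol, 0.01% Tween-20. ClpP 10 microg/mL final; 20 min RT; delta FRET normalized to ADEP and DMSO controls.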
A549 tox-1 = A549 cytotoxicity, counter-screen for Nrf2 inhibitors; A549 ARE-Fluc cells, CellTiter-Fluor viability, 18-24 h; Potency, µM (top dose mostly 46 µM), for inactives: at the top dose activity change, negative = cytotoxicity, actives largely listed as inhibitors; hit rate 0.16% among 390,000; AID 504648; further: potency means the concentration at half of the fitted maximal effect; on the % scale 0 is the no-effect control and ±100 the full control effect
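A549 ARE-Fluc cells in 5% FBS OPTI-MEM, 5000 cells/well, rested 2 h then exposed to compounds in concentration-response for 18-24 h at 37 °C. Viability by CellTiter-Fluor fluorescence (Ex 405/Em 525) after 30 min; luciferase luminescence (BugLite, 15 min, RT) read afterwards.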
miR-21 reporter = miR-21 reporter, rising signal | AID 2288 | HeLa miR-21 FLuc reporter, luciferase, 48 h | 340,000 tested, under 10 active | Potency, µM (doses to about 38.3 µM), for inactives: at the top dose reporter change, positive = more light; active = well fitted rising curve with a large enough effect; inconclusive = small, poorly fitted or top-dose-only effect; inactive = no such curve, though single readings can be large or run the other way;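 note: % of control where 0% means no effect; miR-21 action dims this reporter so a rising signal means less miR-21 action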
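Compounds were titrated across several concentrations (up to approximately 40 uM) and incubated 48 hours with HeLa miR-21-FLuc reporter cells (miR-21 target sequence downstream of FLuc, endogenous miR-21). Readout was firefly luciferase luminescence after lytic detection reagent.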
Nrf2 block = blocks Nrf2 signaling; Potency, µM (top dose mostly 46 µM), for the others: at the highest dose activity change, negative = inhibition, actives largely listed as inhibitors; A549 ARE-Fluc reporter, luciferase luminescence, 18-24 h; AID 504444; hit rate 2.1% among 360,000; further: potency means the concentration at half of the fitted maximal effect; on the % scale 0 is the no-effect control and ±100 the full control effect; nearly all actives have a fitted effect of over 60% in size
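Nrf2 function is reported as luminescence of an ARE-controlled luciferase in A549 cells. Compounds were tested at several concentrations, and a CellTiter-Fluor read on the same wells flagged cytotoxicity.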
Nrf2 activator = Nrf2 pathway activation | AREc32 ARE-luciferase reporter (MCF7-derived line), luminescence, 24 h | hit rate 0.31% among 410,000 | Potency, µM (titrated, usually from 46.1 µM), inactives show at the top dose activation, actives largely listed as activators | AID 624171; further: potency means the concentration at half of the fitted maximal effect; % of control where 0% means no effect; nearly all actives have a fitted effect of over 65% in size
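Luciferase luminescence (Steady-Glo, 30 min at room temperature) served as the read-out of ARE activation in AREc32 cells treated with compounds for 24 hr at 37 deg C.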
FLuc counter 3 = firefly luciferase inhibition, Nrf2 hit validation; Potency, µM (doses to about 57.5 µM), without a hit: at the top dose activity change, negative = inhibition, actives largely listed as inhibitors; AID 720522; hit rate 4% among 1,400; shares compounds with Nrf2 block; purified firefly luciferase, luminescence inhibition; further: potency means the concentration at half of the fitted maximal effect; on the % scale 0 is the no-effect control and ±100 the full control effect; nearly all actives have a fitted effect of over 65% in size
A549 tox-2 = counter-screen for Nrf2 inhibitors: cytotoxicity in A549 ARE cells; hit rate 2% among 1,400; Potency, µM (top dose mostly 46.1 µM), without a hit: at the top dose activity change, negative = cytotoxicity, hits mostly inhibitors; shares compounds with Nrf2 block; A549 ARE-Fluc cells, cytotoxicity counterscreen;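 further: potency means the concentration at half of the fitted maximal effect; cells exposed to compounds for 18 to 24 hours; on the % scale 0 is the no-effect control and ±100 the full control effect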
ARE-Fluc inh = Nrf2 inhibition confirmed, A549 ARE-luciferase; shares compounds with Nrf2 block; AID 720524; hit rate 74% among 1,400; Potency, µM (doses to about 46.1 µM), inactives show at the top dose activity change, negative = inhibition, hits mostly inhibitors; A549 ARE-firefly luciferase reporter, luminescence; further: potency means the concentration at half of the fitted maximal effect; on the % scale 0 is the no-effect control and ±100 the full control effect; nearly all actives have a fitted effect of over 65% in size
ClpP inh valid = Bacillus subtilis ClpP inhibition, validated hit; AID 743245; Potency, µM (series often up to 57.5 µM), for the others: top-dose activity change, negative = inhibition, actives largely listed as inhibitors; purified B. subtilis ClpP, FRET-FV substrate cleavage, 20 min; hit rate 40% among 470; shares compounds with ClpP mod; further: potency means the concentration at half of the fitted maximal effect; on the % scale 0 is the no-effect control and ±100 the full control effect; nearly all actives have a fitted effect of over 70% in size
Numbers without * were called inactive; u = inconclusive; x = no result. This is a sample that favours compounds with a hit; in the whole collection about 3.7% have one here. Unless noted, the call rests on the fitted dose curve; in most records, active means well fitted curve in the direction sought with a large enough effect; inconclusive means small, poorly fitted or top-dose-only effect, or another doubt; inactive means no such curve, though single readings can be large; an effect the other way counts as inactive or inconclusive.

The opening three entries (preview)
SMILES	p53 reactivator	ClpP mod	A549 tox-1	miR-21 reporter	Nrf2 block	Nrf2 activator	ClpP inh valid	others
C=CCn1c(O)c(C(C)=NCc2cc(OC)cc(OC)c2)c(=O)[nH]c1=O	-16.5%	-0.6%	0.0%	28.9%	7.31µM*	0.2%	x	FLuc counter 3=2.0%;A549 tox-2=-14.1%;ARE-Fluc inh=14.6µM*
CC(N)c1cccc(Cl)c1Cl (configuration not stated)	x	1.5%	x	x	x	x	x
Cc1ccc(CNC(=O)c2ccc(CSc3nc4ccncc4n3Cc3ccc(C)cc3)cc2)cc1	x	u	5.4%	-2.8%	u	-0.8%	x

The whole of this part (from the top)
SMILES	p53 reactivator	ClpP mod	A549 tox-1	miR-21 reporter	Nrf2 block	Nrf2 activator	ClpP inh valid	others
C=CCn1c(O)c(C(C)=NCc2cc(OC)cc(OC)c2)c(=O)[nH]c1=O	-16.5%	-0.6%	0.0%	28.9%	7.31µM*	0.2%	x	FLuc counter 3=2.0%;A549 tox-2=-14.1%;ARE-Fluc inh=14.6µM*
CC(N)c1cccc(Cl)c1Cl (configuration not stated)	x	1.5%	x	x	x	x	x
Cc1ccc(CNC(=O)c2ccc(CSc3nc4ccncc4n3Cc3ccc(C)cc3)cc2)cc1	x	u	5.4%	-2.8%	u	-0.8%	x
COc1ccccc1NC(=O)c1oc2ccccc2c1NC(=O)c1ccccc1C(F)(F)F	x	206.4%	-0.8%	7.3%	5.2%	4.6%	30.6µM*
Cc1cc(OCc2nn[nH]n2)c2c3c(c(=O)oc2c1)CCCC3	10.0%	6.31µM*	21.2%	2.4%	3.0%	0.0%	27.3µM*
Cc1cc(OCc2ccc([N+](=O)[O-])cc2)c2c3c(c(=O)oc2c1)CCCC3	0.9%	-0.2%	6.5%	7.0%	9.5%	0.2%	x
CC(=O)N1c2ccc(S(=O)(=O)N3CCCC(C(=O)Nc4cc(C)cc(C)c4)C3)cc2CC1C (configuration not stated)	x	-4.2%	14.5%	3.3%	u	3.6%	x
Cc1ccc(-n2c(/C=C\c3ccc(F)c(F)c3)nc3ccccc3c2=O)c(C)c1	x	1.3%	-1.2%	4.7%	x	-0.3%	x
CNC(=O)Oc1ccc(-c2cn3cc(Cl)ccc3n2)cc1	u	8.91µM*	-7.4%	u	u	-0.9%	u
